Data: paper PMC6407616 (Molecular cell, 2018)

Molecular target: H3Kc9me3 mononucleosome (601 positioning sequence) (Xenopus laevis)
Test: fluorescence polarisation

## full-length recombinant ZMET2 (wild type) (from UniProt Q9AXT8 1-912) (enzyme)
  Kd: 890 nM
